Yeast mating assay 1: variants of the scFv Ab-14

Target peptide (SARS-CoV-2 spike, HR2 region): PDVDLGDISGINAS

Parent: Ab-14, a human scFv built as VH, a 15-residue (Gly4Ser)3 linker, VL. Only the CDRs of the heavy chain vary.
VH: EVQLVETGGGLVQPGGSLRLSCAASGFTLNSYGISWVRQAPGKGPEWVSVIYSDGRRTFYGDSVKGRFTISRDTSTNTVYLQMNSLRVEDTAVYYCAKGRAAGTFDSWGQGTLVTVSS
VL: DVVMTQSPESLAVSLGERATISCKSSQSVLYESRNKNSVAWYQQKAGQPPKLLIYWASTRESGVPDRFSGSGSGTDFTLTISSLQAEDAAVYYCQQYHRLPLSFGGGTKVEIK

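Phage display of a naive human antibody library on the peptide gave the parent. Variants in AAYL49 differ from the parent at up to three CDR positions; double and triple changes were sampled at random. The assay is AlphaSeq: two haploid yeast populations carry antibody and antigen on their surface. The frequency of each diploid, read from paired DNA barcodes, reflects how well the two displayed proteins bind. A regression on co-assayed BCL2-family reference pairs converts the normalised counts of each replicate to an apparent Kd. There are three technical replicates.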

The parent's heavy chain CDRs are GFTLNSYGIS, VIYSDGRRTFYGDSVK, GRAAGTFDS; each variant's own CDRs replace them letter for letter. Numbers give log10(Kd / nM), so 0 is 1 nM and 3 is 1 µM. Smaller is tighter. "ND" marks a missing value. The strain was present, yet no cells mated with the target were sequenced in that replicate, which points to weak or no binding.

| CDR-H1 | CDR-H2 | CDR-H3 | log10 Kd, replicates | signal with controls |
|---|---|---|---|---|
| GFTLNSYGIS | VIYKDGRRTFYSDSVK | GNAAGTFDS | 5.09 / 4.89 / ND | 7/9 (4.61) |
| GFTLNSYGIS | QIYSDGRRTFYGHSVK | GRAASTFDS | 5.37 / 4.22 / ND | 3/9 (3.84) |
| GFTLNSYGIS | VIYSDFRGMFYGDSVK | GRAAGTFDS | ND / ND / ND | 0/9 |
| GFTPNSYGIE | VICSDGRRTFYGDSVK | GRAAGTFDS | ND / ND / ND | 0/9 |
| GFTLNSYGIS | YIYNDGRRTFYGDSVK | GRAAGTFDS | ND / ND / ND | 1/9 (4.72) |
| GFTLNSYGIS | VIYSDGRRTFYGDSVK | GRAQGLFDP | ND / ND / ND | 1/9 (1.38) |
| GFTLNVYGIS | VIYSDGRRDFYGDSVY | GRAAGTFDS | ND / ND / ND | 0/9 |
| GFTLNSYGIS | VIGSDGRRTFYGDSVK | GRAAGTPDS | 4.11 / ND / ND | 3/9 (4.42) |
| GFTLSSYGIS | VIYSDGRRTFYGASVK | GRAAATFDS | ND / ND / ND | 0/9 |
| GFTRQSYGIS | VIYSDGRRTFYGDKVK | GRAAGTFDS | -0.01 / 0.32 / 0.07 | 1/9 (4.54) |
| VFTLNSYGIS | VIYSDGRRTFYGDSVK | WRAAGAFDS | ND / ND / ND | 0/9 |
| GFTLNSQGIS | VIYSDGRRTFYGDSVK | GRAYGTGDS | ND / 5.33 / ND | 3/9 (4.44) |
| GFTGNSYGIS | VIYSDGRRTFYGDSVK | GNAAGTHDS | 3.29 / ND / 4.40 | 2/9 (3.69) |
| GFTLNSYGII | VIYSDGRRTFYGDSPK | DRAAGTFDS | ND / ND / ND | 0/9 |
| GFTSNSYGIS | VMASDGRRTFYGDSVK | GRAAGTFDS | 4.65 / 4.26 / ND | 3/9 (5.26) |
| GFTLNSYTIS | VIYSDGRRTFYGDSVK | GRAWGTRDS | ND / ND / 6.51 | 3/9 (4.02) |
| GFTLSSYGIS | VIYSDGRRTFYGDSVC | GRAAGTFDW | ND / ND / ND | 1/9 (4.53) |
| GFTLYSYGIS | VIGSDGMRTFYGDSVK | GRAAGTFDS | ND / 3.57 / ND | 2/9 (4.25) |
| GNTLNSYGIS | VIYSDGRRKFYGDSVK | IRAAGTFDS | ND / 3.18 / ND | 0/9 |
| GTTGNSYGIS | VIYSDGRRTDYGDSVK | GRAAGTFDS | ND / 3.63 / ND | 1/9 (4.00) |
| VFTPNSYGIS | VIYSDGRRTFYGDSVK | GRATGTFDS | ND / ND / ND | 0/9 |
| IFTLNSYGIS | VIYSDGRRTFYGDKVK | GRAAGTFAS | 3.14 / 3.10 / 2.80 | 3/9 (4.11) |
| GFTLNSYGIS | VIFSDGRRTPYGDSVK | GRAAQTFDS | ND / ND / ND | 0/9 |
| GFTLNSYGIS | VEYSDGRRTFYGDSVK | GRAAWTFDF | 3.69 / ND / 3.56 | 0/9 |
| GFTWNSYGIS | VIESDGRRTFYGDCVK | GRAAGTFDS | ND / ND / ND | 0/9 |
| GFTLQSYGIS | VIYSDGRRTFYLDSVK | GRAAGTFDS | 1.04 / 1.03 / 1.50 | 0/9 |
| GFALNSYGIS | VIYSDGRRTFYGDSVK | QRAACTFDS | ND / ND / ND | 0/9 |
| GFTLNSYGIS | VIYSDARRRFYGDSVK | GRTAGTFDS | 2.25 / 2.45 / 3.82 | 0/9 |
| AFTLNSYGIS | VIYSFGRRTFYGDSVK | GRAHGTFDS | ND / ND / ND | 0/9 |
| GFTLNSYGIS | FIYSDGRRTFYGDSVD | GRAAGIFDS | ND / ND / ND | 1/9 (2.93) |
| GFTLNSMGHS | VIYSKGRRTFYGDSVK | GRAAGTFDS | ND / ND / ND | 0/9 |

The 4 strongest on average among those seen in every replicate, once more:

{"CDR-H1": "GFTRQSYGIS", "CDR-H2": "VIYSDGRRTFYGDKVK", "CDR-H3": "GRAAGTFDS", "log10 Kd, replicates": "-0.01 / 0.32 / 0.07", "signal with controls": "1/9 (4.54)"}
{"CDR-H1": "GFTLQSYGIS", "CDR-H2": "VIYSDGRRTFYLDSVK", "CDR-H3": "GRAAGTFDS", "log10 Kd, replicates": "1.04 / 1.03 / 1.50", "signal with controls": "0/9"}
{"CDR-H1": "GFTLNSYGIS", "CDR-H2": "VIYSDARRRFYGDSVK", "CDR-H3": "GRTAGTFDS", "log10 Kd, replicates": "2.25 / 2.45 / 3.82", "signal with controls": "0/9"}
{"CDR-H1": "IFTLNSYGIS", "CDR-H2": "VIYSDGRRTFYGDKVK", "CDR-H3": "GRAAGTFAS", "log10 Kd, replicates": "3.14 / 3.10 / 2.80", "signal with controls": "3/9 (4.11)"}

Nonspecific signal, from three strains lacking the peptide, appeared in 15% of pairings of library AAYL49, centred on 4.06 (5% of these signals below 2.83); values are not corrected for it. The control count says in how many pairings with the empty strains this scFv gave a signal, with their mean in brackets.

Data: MIT Lincoln Laboratory AlphaSeq set, Engelhart et al. 2022, doi:10.1038/s41597-022-01779-4, as distributed in FLAb.